Test results as given in PMC5740215, “Functional characterization of a novel somatic oncogenic mutation of PIK3CB” (Signal Transduction and Targeted Therapy, 2017).

By UniProt entry, the sequences of proteins in these tests, tags left out.
UniProt P42338, whole entry E1051K: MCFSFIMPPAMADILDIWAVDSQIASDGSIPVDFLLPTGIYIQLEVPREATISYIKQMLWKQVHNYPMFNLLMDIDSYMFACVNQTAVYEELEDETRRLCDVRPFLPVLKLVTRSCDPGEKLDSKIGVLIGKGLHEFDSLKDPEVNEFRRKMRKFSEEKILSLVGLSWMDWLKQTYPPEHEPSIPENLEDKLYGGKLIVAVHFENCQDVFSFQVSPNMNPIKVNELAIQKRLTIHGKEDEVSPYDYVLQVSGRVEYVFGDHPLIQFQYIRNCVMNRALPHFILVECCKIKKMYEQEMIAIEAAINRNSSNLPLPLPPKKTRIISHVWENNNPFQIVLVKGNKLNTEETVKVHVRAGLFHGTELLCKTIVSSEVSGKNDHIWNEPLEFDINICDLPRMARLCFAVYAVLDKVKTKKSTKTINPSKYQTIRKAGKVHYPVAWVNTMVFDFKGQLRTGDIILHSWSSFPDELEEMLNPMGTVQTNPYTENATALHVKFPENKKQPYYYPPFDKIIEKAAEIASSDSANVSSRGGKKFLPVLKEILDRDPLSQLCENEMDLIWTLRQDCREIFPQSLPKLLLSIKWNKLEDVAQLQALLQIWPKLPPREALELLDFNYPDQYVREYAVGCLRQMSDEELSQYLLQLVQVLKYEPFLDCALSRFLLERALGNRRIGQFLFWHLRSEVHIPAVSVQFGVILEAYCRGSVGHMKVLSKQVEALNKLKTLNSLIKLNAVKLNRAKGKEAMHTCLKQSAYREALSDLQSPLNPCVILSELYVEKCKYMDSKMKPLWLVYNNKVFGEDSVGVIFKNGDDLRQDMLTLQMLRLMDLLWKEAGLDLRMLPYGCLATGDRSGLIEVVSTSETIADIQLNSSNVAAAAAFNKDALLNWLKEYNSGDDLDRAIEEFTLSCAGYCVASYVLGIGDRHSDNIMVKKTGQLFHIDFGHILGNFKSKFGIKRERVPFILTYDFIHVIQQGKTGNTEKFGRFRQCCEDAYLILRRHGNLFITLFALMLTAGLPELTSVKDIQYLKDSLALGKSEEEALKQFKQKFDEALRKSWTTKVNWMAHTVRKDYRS

Experiments:
[1] = molecular target: T1, p110β (Homo sapiens, UniProt P42338); assay: ADP-Glo lipid kinase assay at Km [ATP]; Ki from IC50 by Cheng-Prusoff; format: biochemical; settings: read-out: TGX-221 ^b / Ki
T1 construct: gene PIK3CB; GST-His6-p110β+myc-p85α; with p85α (PIK3R1)

[2] = molecular target: T2, p110β^E1051K (Homo sapiens, UniProt P42338, E1051K); assay: as above; format: biochemical; settings: read-out: TGX-221 ^b / Ki
T2 construct: gene PIK3CB; GST-His6-p110β+myc-p85α; with p85α (PIK3R1)

Compound: Cc1cc(C(C)Nc2ccccc2)c2nc(N3CCOCC3)cc(=O)n2c1 (racemic) [TGX-221]
- Ki [1]: 12.3 ± 1.47 nM
- Ki [2]: 9.32 ± 3.45 nM
